Tests used:
[1] = target: GlyT2 (Rattus norvegicus, UniProt P58295); experiment: FLIPR membrane potential assay for GlyT2 target activity (T-rex-293-rGlyT2 cells); assay type: cell-based; details: 10 uM compound, then glycine; relative to ORG25543 (500 nM) defined as 100%
Description: GlyT2 (Glycine transporter type 2) is an electrogenic carrier associated with Na^+/Cl^− ion transportation, primarily distributed around the spinal cord part, and has an important role in the transfer of a pain signal in the spinal cord.
In order to identify the fact that the novel compound of the present invention has GlyT2 targeting activity, a membrane potential assay was performed. FLIPR Membrane Potential Assay is used to measure ion channel modulation caused by an increase or decrease in fluorescence signal due to variations of cellular membrane potential.
First, pcDNA4/TO vector encoding GlyT2 of the rat in HEK293 cell was transfected to prepare a stable recombinant cell line, i.e., T-rex-293-rGlyT2. A […] (Greiner #655090) coated with poly-D-lysine was prepared, and the above recombinant cells (T-rex-293-rGlyT2) were seeded at 3.2×10^4/well therein using a medium containing 15 μg/ml of tetracycline. After this, incubation was conducted at 37° C. for 48 hours under 5% CO2 conditions to express GlyT2. 10 ml of assay buffer (1×HBSS, 20 mM HEPES, pH 7.4) was added to a blue dye solution and sufficiently dissolved therein to prepare a membrane potential dye solution. After removing the medium from the well showing GlyT2 expression, the membrane potential dye solution was added to the well in an amount of 100 μl/well and incubated for 20 minutes.
According to the FLIPR Membrane Potential Assay kit's protocol, SoftMax Pro Software of FlexStation 3 software (Molecular Devices, US) was set up. An extent of GlyT2 expression was determined such that the extent of cellular membrane depolarization relative to an administered amount of glycine during glycine treatment is indicated in relative fluorescence units (RFU), and RFU (Max-Min) is calculated by subtracting the minimum value from the maximum value of RFU. After firstly treating 10 uM of the novel compound according to the present invention, glycine was treated and RFU (Max-Min) for glycine administration was determined. Then, with the determined result, the extent of depolarization inhibition (% inhibition) was assessed for each compound, compared to a positive control.
The positive control used herein was ORG25543 (500 nM) having strong inhibitory efficacy specific to GlyT2.
For GlyT2 inhibitory efficacy, the efficacy of the compound ORG25543 (500 nM) was defined as 100%. Similarly, for 5HT2A inhibitory efficacy, the efficacy of MDL11939 (100 nM) was defined as 100%. Therefore, the target inhibitory efficacy of each compound was indicated in a relative value compared to the above defined efficacy.

By UniProt entry, the sequences of proteins in these tests, tags left out. Where a name states a change or a piece, a line headed by the entry shows the natural chain unless it says otherwise.
UniProt P58295: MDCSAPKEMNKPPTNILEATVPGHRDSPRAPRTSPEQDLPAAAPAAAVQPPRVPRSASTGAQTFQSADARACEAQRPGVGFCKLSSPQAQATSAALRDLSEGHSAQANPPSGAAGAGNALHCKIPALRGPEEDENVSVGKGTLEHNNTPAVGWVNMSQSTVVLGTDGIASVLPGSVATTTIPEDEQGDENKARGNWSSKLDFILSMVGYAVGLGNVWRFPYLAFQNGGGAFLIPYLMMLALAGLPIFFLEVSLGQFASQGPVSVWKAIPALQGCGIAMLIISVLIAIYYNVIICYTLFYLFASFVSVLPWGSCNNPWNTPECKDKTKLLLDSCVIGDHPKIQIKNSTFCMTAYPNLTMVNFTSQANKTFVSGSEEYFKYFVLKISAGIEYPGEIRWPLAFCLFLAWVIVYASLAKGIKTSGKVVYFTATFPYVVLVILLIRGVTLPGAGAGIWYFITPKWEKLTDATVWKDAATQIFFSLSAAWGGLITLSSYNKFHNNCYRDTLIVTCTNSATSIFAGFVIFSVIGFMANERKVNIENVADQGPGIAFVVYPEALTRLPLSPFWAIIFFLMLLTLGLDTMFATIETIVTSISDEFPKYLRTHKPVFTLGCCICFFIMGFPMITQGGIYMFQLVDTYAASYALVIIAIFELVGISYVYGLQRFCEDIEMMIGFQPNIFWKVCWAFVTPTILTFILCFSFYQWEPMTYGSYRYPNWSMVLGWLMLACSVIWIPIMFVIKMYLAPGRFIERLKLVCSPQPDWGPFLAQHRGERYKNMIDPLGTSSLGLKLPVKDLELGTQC
UniProt P28223, whole entry, looked up: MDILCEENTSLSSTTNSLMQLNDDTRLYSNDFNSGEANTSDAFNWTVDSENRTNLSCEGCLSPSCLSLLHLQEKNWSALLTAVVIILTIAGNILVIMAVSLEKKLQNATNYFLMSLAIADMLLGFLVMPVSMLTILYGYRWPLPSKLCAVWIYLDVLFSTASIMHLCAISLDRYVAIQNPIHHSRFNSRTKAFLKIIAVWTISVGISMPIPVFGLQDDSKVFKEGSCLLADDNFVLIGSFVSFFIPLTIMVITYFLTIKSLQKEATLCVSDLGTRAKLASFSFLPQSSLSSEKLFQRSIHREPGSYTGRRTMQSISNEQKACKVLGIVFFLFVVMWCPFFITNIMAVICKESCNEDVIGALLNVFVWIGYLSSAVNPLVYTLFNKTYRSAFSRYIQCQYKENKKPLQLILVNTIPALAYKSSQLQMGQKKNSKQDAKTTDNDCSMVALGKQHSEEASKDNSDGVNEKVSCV

[2] = target: 5HT2A (Homo sapiens, UniProt P28223); experiment: FLIPR calcium assay for 5HT2A target activity (transfected HEK293 cells); assay type: cell-based; details: 10 uM compound, then serotonin; relative to MDL11939 (100 nM) defined as 100%

SMILES | GlyT2 % inhibition [1] [%] | 5HT2A % inhibition [2] [%]
CCCCOc1c(C)cc(C(=O)NCC2(N(C)C)CCC(F)(F)CC2)cc1C | 101.9 | 56.1
CN(C)C1(CNC(=O)c2ccc(OCc3ccccc3)cc2)CCC(F)(F)CC1 | 96.0 | 113.0
CCCCOc1ccc(C(=O)NCC2(N(C)C)CCC(F)(F)CC2)cc1 | 59.3 | 77.0
CCCCOc1ccc(C(=O)NCC2(N3CCN(C)CC3)CCCCC2)cc1 | 42.2 | 121.4

From patent US9359346B2, “Benzamide derivative and use thereof” (VIVOZON, INC., priority 2011, dated 2016)
